## Apparent affinities of Ab-14 variants for a coronavirus HR2 peptide

Binding partner: SARS-CoV-2 spike HR2 peptide, sequence PDVDLGDISGINAS.

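These sequences belong to a second round, designed from the earlier measurements on random variants of the parent. Their group label is 14H_GP_Gibbs (GP: Gaussian process model; Gibbs: Gibbs sampling; a sequence that several methods proposed may carry one label only). The scFvs were displayed on barcoded MATa yeast, the peptide on MATalpha yeast. Pairs that bind mate more often; barcode pairs of the diploids are counted by sequencing. A regression on co-assayed BCL2-family reference pairs converts the normalised counts of each replicate to an apparent Kd. Mating was done six times.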

Each scFv is VH, a 15-residue (Gly4Ser)3 linker, VL, as in the parent Ab-14, and differs from it in the CDRs of the heavy chain only.
VH: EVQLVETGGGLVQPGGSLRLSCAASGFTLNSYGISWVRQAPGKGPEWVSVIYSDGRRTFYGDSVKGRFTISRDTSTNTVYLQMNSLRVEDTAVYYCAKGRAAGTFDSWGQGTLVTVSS
VL: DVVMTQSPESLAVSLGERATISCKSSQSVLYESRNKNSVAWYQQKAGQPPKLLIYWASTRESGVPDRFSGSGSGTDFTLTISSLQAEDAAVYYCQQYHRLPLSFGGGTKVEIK

Each variant's VH is given in full.
Scale: log10 of Kd in nM, estimated from mating counts; low values are strong binders.
A pair that was not seen in that replicate is written "ND"; this usually means weak binding, but a binder can also be missed.

| VH | log10 Kd, replicates | signal with controls |
|---|---|---|
| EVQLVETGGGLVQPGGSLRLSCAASGFTLNSYGISWVRQAPGKGPEWVSVIYSDGKRTFYGDAVKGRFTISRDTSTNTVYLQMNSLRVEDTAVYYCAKGRTAGTFWSWGQGTLVTVSS | ND ND ND ND ND ND | 0 of 18 |
| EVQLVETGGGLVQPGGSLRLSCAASLFDLNSYGISWVRQAPGKGPEWVSVIYSDGRRTFYIDSVKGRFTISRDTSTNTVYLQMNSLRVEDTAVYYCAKGQEAGTFDSWGQGTLVTVSS | ND ND ND ND ND 1.70 | 0 of 18 |
| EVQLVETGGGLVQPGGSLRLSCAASGFDLNSYGISWVRQAPGKGPEWVSVIYSDGRRTFYLDQVKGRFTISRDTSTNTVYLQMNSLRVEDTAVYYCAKGNTAGTFDSWGQGTLVTVSS | 0.88 0.80 0.13 0.10 0.57 0.71 | 0 of 18 |
| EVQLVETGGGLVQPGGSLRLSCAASGFQLNSYGISWVRQAPGKGPEWVSVIYADGRRTFYGDSVKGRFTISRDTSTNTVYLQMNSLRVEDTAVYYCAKGEAAGTFDKWGQGTLVTVSS | 0.16 -0.16 -0.02 0.38 -0.27 -0.17 | 0 of 18 |
| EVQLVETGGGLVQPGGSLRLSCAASGFELNEYGISWVRQAPGKGPEWVSVIYSDGRRTFYGDSVKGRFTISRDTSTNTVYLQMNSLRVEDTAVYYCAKGRTAGTFDYWGQGTLVTVSS | 0.06 0.03 -0.26 -0.01 0.02 -0.11 | 0 of 18 |
| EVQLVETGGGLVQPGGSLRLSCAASGFWLNEYGISWVRQAPGKGPEWVSVIYSDGRRTFYHDSVKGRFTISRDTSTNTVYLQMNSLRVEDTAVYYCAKGRIAGTFDSWGQGTLVTVSS | 1.57 0.64 0.76 0.67 0.55 0.39 | 0 of 18 |
| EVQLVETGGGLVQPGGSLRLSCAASGYSLNEYGISWVRQAPGKGPEWVSVIYSDGRRTFYGDSVKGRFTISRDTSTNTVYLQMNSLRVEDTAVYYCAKGRNAGTFDSWGQGTLVTVSS | ND ND ND ND 1.85 ND | 2 of 18 (1.94) |
| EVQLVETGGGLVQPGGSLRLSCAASGFDLNSYGISWVRQAPGKGPEWVSVIYSDGRRTFYVDSVKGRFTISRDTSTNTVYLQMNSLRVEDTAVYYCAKGNAAGTFDLWGQGTLVTVSS | 0.60 0.46 -0.34 -0.72 -0.13 0.38 | 0 of 18 |
| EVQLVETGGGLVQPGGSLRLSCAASGFTLNSYGISWVRQAPGKGPEWVSVIYSDGRRTFYADAVKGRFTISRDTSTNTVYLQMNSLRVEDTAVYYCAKGKEAGTFDSWGQGTLVTVSS | ND ND ND ND ND ND | 0 of 18 |
| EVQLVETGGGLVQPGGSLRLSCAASKFDLNSYGISWVRQAPGKGPEWVSVIYSDGRRTFYGDSVKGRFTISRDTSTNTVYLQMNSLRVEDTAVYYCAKGITAGTFDSWGQGTLVTVSS | 0.71 ND 0.74 3.19 2.24 2.46 | 0 of 18 |
| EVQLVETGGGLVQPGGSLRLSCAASKFKLNSYGISWVRQAPGKGPEWVSVIYSDGRRTFYKDSVKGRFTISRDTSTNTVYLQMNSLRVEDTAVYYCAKGRTAGTFDSWGQGTLVTVSS | ND ND ND ND ND ND | 1 of 18 (1.84) |
| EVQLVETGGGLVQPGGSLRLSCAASGFDLNSYGISWVRQAPGKGPEWVSVIYSDGRRTFYVDTVKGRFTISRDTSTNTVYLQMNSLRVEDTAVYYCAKGRTAGTFDSWGQGTLVTVSS | 0.93 1.21 0.61 1.44 0.70 2.13 | 0 of 18 |
| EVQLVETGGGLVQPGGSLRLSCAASGFQLNSYGISWVRQAPGKGPEWVSVIYSDGRRTFYQDSVKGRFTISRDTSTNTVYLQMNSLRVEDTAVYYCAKGRTAGTFDAWGQGTLVTVSS | 0.28 0.34 0.20 0.41 0.89 0.87 | 0 of 18 |
| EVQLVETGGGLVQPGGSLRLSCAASGFTLNSYGISWVRQAPGKGPEWVSVIYSDGKRTFYSDSVKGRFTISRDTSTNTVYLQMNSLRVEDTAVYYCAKGKAAGTFDWWGQGTLVTVSS | ND ND ND ND ND ND | 0 of 18 |
| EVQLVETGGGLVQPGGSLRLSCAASGFQLNSYGISWVRQAPGKGPEWVSVIYSDGRRTFYGDSVKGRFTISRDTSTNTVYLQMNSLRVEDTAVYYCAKGQTAGTFDDWGQGTLVTVSS | 1.10 0.53 1.01 0.95 1.27 1.54 | 1 of 18 (2.31) |
| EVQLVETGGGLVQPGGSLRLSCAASGFTLNSYGISWVRQAPGKGPEWVSVIYSDGVRTFYGDSVKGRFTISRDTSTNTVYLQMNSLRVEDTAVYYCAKGRVAGTFDKWGQGTLVTVSS | 0.86 1.55 0.83 0.62 0.86 2.28 | 0 of 18 |
| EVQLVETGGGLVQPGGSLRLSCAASKFTLNSYGISWVRQAPGKGPEWVSVIYSDGRRTFYADSVKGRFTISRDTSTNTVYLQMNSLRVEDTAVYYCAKGQEAGTFDSWGQGTLVTVSS | 0.12 0.38 0.90 0.58 1.23 0.36 | 0 of 18 |
| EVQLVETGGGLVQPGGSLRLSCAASGFDLNSYGISWVRQAPGKGPEWVSVIYSDGRRTFYGDKVKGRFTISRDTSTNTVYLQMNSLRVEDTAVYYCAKGRTAGTFDDWGQGTLVTVSS | 0.37 0.42 0.23 0.31 0.07 0.44 | 2 of 18 (2.06) |
| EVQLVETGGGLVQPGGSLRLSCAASGFDLNSYGISWVRQAPGKGPEWVSVIYSDGRRTVYGDAVKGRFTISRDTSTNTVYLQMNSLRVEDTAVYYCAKGREAGTFDSWGQGTLVTVSS | ND -0.55 -0.43 -0.08 0.47 1.11 | 0 of 18 |
| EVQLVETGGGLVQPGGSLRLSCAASGFELNSYGISWVRQAPGKGPEWVSVIYSDGRRTFYGDSVKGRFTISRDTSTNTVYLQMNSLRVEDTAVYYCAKGEAAGTFDMWGQGTLVTVSS | 3.25 ND 2.05 ND ND ND | 0 of 18 |
| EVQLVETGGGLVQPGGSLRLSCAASGFDLNTYGISWVRQAPGKGPEWVSVIYSDGRRTFYDDSVKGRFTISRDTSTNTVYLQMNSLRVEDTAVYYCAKGQAAGTFDSWGQGTLVTVSS | -0.25 -0.08 -0.61 -0.61 -0.36 -0.15 | 0 of 18 |
| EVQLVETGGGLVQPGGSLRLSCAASMFSLNSYGISWVRQAPGKGPEWVSVIYADGRRTFYGDSVKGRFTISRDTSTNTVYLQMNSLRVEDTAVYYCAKGQAAGTFDSWGQGTLVTVSS | ND ND ND ND ND ND | 0 of 18 |
| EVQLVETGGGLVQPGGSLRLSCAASGFTLNSYGISWVRQAPGKGPEWVSVIYSDGRRTFYADQVKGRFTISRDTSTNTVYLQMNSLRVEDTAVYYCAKGKEAGTFDSWGQGTLVTVSS | 0.25 -0.28 -0.03 -0.13 0.00 -0.12 | 0 of 18 |

The closing 2 entries, repeated:

| VH | log10 Kd, replicates | signal with controls |
|---|---|---|
| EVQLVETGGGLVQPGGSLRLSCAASMFSLNSYGISWVRQAPGKGPEWVSVIYADGRRTFYGDSVKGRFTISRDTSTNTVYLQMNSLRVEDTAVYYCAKGQAAGTFDSWGQGTLVTVSS | ND ND ND ND ND ND | 0 of 18 |
| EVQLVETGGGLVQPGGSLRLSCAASGFTLNSYGISWVRQAPGKGPEWVSVIYSDGRRTFYADQVKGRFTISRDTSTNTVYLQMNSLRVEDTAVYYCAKGKEAGTFDSWGQGTLVTVSS | 0.25 -0.28 -0.03 -0.13 0.00 -0.12 | 0 of 18 |

Nonspecific signal, from three strains lacking the peptide, appeared in 1% of pairings of all heavy chain designs, centred on 2.08 (5% of these signals below 0.84); values are not corrected for it. Also given: how often the same scFv was detected with the empty control strains, with their mean in brackets.
The range of this assay differs from that of the first round, and the authors advise against merging the two.
The authors' rule: three or more of the six replicates give a measured affinity, fewer mean a poor binder.

Values reported by Li et al. 2023, doi:10.1038/s41467-023-39022-2 (FLAb copy).